According to patent US5821239A (priority 1996, dated 1998):

Tested on: Scopolamine Induced Memory Deficit (mice)
Assay: Dark Avoidance Assay (reversal of scopolamine induced memory deficit)
Format: in vivo
Settings: 0.3 mg/kg of body weight, s.c., retest at 24 hours

SMILES | % of Animals with Scopolamine Induced Memory Deficit Reversal
CCN(CC)C(=O)Oc1cnccc1N=CN(C)C | 26.6%
CN(C)C(=O)Oc1cnccc1N | 26.6%
